Assay results from ChEMBL document CHEMBL4680319, “Synthesis and evaluation of tiaprofenic acid-derived UCHL5 deubiquitinase inhibitors” (Bioorg Med Chem, 2021).

Protein sequences, listed by entry. Tags and fused reporters are not part of them.
UniProt Q9Y5K5, whole entry: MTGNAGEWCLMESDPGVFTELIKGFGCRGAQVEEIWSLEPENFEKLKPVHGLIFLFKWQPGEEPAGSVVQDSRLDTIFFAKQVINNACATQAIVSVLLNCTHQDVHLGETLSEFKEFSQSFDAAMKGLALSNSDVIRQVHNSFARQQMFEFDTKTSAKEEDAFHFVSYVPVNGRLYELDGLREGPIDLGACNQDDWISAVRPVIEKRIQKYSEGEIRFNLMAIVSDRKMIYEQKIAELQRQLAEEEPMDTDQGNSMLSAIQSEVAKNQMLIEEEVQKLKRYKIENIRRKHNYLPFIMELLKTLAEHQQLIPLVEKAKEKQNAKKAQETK

Biological target: Ubiquitin carboxyl-terminal hydrolase isozyme L5 (Homo sapiens, UniProt Q9Y5K5)
Assay: Inhibition of N-terminal His6-tagged recombinant human UCHL5 expressed in Escherichia coli BL21 (DE3) codon cells assessed as reduction in cleavage of Ubiquitin-Rhodamine110-glycine to Ubiquitin and Rhodamine110-glycine using Ub-Rho 110 as substrate at 200 uM incubated for 30 mins by fluorescence based assay relative to control

inhibition: 15%
Structure (SMILES): CC(C(=O)O)c1ccc(C(=O)c2ccccc2)s1 (stereo unspecified) [TIAPROFENIC ACID]
